This data set relates to CYP1A2, CYP3A, CYP2D6, CYP2C9, CYP2C19, CYP2B6. Description: Drug interaction studies: effect of upadacitinib on co-administered drugs / in vivo markers of CYP activity (cocktail study). The note with it: extended-release.

Each structure is given as a SMILES string.

On to `CC(=O)C[C@@H](c1ccccc1)c1c(O)c2ccccc2oc1=O` [S-Warfarin], for which, where the note is “upadacitinib 30 mg QD”, the “AUC Ratio (90% CI) of co-administered drug, with upadacitinib vs alone” value was 1.11 (1.07-1.15) and the “Cmax Ratio (90% CI) of co-administered drug, with upadacitinib vs alone” value was 1.07 (1.02-1.11). For the setting “upadacitinib 45 mg QD”, the “AUC Ratio (90% CI) of co-administered drug, with upadacitinib vs alone” value was 1.12 (1.05-1.20) and the “Cmax Ratio (90% CI) of co-administered drug, with upadacitinib vs alone” value is 1.18 (1.05-1.33).

The record behind these values is patent US20230233555A1 (AbbVie Inc., priority 2022, published 2023).
